pIC50: −log10 of the molar value.
Molecular target: ATP-binding cassette sub-family C member 3 (Homo sapiens, UniProt O15438)
Format: ADME, cell-based

Amino acid sequences for entries named in this document (tags omitted). A change or cut given only in a name is not applied to a line headed by its entry.
UniProt O15438: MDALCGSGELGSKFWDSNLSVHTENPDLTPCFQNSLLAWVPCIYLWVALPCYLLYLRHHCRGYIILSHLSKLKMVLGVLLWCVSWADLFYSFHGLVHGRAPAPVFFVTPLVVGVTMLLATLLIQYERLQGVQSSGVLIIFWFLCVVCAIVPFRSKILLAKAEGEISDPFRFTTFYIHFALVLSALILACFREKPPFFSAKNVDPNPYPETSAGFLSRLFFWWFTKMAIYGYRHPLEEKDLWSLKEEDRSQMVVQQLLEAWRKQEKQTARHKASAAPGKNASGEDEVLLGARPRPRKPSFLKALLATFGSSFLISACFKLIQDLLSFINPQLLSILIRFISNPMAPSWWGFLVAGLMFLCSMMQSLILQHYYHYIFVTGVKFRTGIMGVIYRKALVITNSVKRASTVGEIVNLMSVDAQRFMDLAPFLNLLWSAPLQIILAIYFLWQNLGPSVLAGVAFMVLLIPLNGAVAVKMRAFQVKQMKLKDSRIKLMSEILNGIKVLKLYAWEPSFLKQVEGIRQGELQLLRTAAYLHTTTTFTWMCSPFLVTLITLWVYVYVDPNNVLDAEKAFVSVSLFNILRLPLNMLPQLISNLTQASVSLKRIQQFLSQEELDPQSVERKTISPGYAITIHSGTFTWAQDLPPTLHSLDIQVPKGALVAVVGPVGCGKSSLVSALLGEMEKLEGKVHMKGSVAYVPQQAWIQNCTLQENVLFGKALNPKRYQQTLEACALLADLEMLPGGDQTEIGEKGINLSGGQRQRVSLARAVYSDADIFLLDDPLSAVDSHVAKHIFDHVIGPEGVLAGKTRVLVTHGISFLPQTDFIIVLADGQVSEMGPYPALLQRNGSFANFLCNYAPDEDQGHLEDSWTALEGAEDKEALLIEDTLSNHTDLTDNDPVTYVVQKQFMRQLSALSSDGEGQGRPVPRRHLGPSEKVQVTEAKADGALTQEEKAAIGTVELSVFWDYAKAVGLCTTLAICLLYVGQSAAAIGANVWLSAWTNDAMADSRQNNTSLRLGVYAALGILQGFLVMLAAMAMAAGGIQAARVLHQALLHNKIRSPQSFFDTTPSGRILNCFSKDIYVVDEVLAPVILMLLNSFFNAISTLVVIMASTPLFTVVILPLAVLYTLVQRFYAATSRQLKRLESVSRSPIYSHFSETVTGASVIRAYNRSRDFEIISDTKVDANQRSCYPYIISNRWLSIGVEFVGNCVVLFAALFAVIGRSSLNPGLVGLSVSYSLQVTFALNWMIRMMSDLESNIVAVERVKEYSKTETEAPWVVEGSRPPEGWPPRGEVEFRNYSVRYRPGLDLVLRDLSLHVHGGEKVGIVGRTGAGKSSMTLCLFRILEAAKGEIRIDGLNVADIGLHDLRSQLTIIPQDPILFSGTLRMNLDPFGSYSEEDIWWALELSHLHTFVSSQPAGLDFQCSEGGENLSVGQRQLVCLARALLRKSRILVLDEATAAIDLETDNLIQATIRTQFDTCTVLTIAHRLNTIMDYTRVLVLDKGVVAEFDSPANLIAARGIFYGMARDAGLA

pIC50: < 3.88
Sequence: BIVALIRUDIN
